This note sets out measurements from US5364879A, “Medical uses of trioxolane and diperoxide compounds” (Cliveden Ltd., priority 1994, dated 1994).

In the data set the test system is yeast infections of the vagina. As to conditions: suppository, third group.

Regarding `Clc1ccccc1C(c1ccccc1)(c1ccccc1)n1ccnc1` [clotrimazole], the irritation entry is given as “a number of these patients complain of irritation”. Moreover, the “reddening of the vagina” value (in patients complaining of irritation) is recorded as “a significant reddening of the vagina is present”.
